Source: BindingDB's records for PubMed 3010074 (Warner-Lambert/Parke-Davis Pharmaceutical Research, 1986)

By UniProt entry, the sequences of proteins in these tests, tags left out.
UniProt P25099, whole entry: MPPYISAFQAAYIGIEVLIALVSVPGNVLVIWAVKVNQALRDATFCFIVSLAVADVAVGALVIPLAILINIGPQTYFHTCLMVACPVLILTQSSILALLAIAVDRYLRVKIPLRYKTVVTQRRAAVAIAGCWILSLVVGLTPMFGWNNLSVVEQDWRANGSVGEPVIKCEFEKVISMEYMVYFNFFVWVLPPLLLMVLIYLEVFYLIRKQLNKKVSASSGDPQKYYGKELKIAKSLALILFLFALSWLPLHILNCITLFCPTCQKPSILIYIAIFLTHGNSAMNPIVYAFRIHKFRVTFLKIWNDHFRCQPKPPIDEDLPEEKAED

Target: Adenosine receptor A1 (Rattus norvegicus, UniProt P25099)

Row | Ki [nM] | Structure (SMILES)
1 | 610 | Cn1c(=O)c2[nH]c(-c3ccc(C(=O)O)cc3)nc2n(C)c1=O [8-(4-Carboxyphenyl)theophylline]
2 | 44.4 | COc1ccc(-c2nc3c([nH]2)c(=O)n(C)c(=O)n3C)cc1 [8-(4-methoxyphenyl)-1,3-dimethyl-1H-purine-2,6(3H,7H)-dione]
3 | 10.2 | CCCn1c(=O)c2[nH]c(-c3ccccc3)nc2n(CCC)c1=O [8-Phenyl-1,3-dipropyl-3,9-dihydro-purine-2,6-dione]
